Data reported in US11192890B2, “FGFR kinase inhibitors and pharmaceutical uses” (AUCKLAND UNISERVICES LIMITED, priority 2017, dated 2021).

Tested on: SNU-16 (FGFR2-amplified) gastric cancer xenograft
Experiment: Anti-tumour activity, SNU-16 xenograft
Assay type: in vivo, NIH-III nude mice
Conditions: 6.25 mg/kg, qdx12, PO

Question: With AZD4547 [reference compound] as the substance, how does the tumour response read?
Answer: progressive growth
